Screens deposited in PubChem by Broad Institute.
An excerpt weighted towards active compounds, which were near 1.5% of everything screened.
UUG fidelity: yeast start codon fidelity modulation | S. cerevisiae UUG-firefly luciferase reporter, luminescence/redox ratio | activity score, % at 18.7 µM | hit rate 0.13% among 350,000 | AID 602363;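 active means replicate mean at a twofold rise or more, about +100% in these data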;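 further: firefly luciferase made from a UUG start codon reports start codon fidelity; reporter light over untreated wells divided by growth signal over untreated wells; some hits fall short of that in this replicate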
HIV Env fusion: inhibitors of HIV Env-mediated cell fusion; HeLa-JRFL Env/CEM21 cell fusion, luciferase; inhibition, % at 12.3 µM; actives 1.1% (n = 360,000); AID 651610;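 active means mean replicate inhibition score of at least 50 and every replicate individually at or above 50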;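 further: 0% = plate neutral controls and 100% = maraviroc near 300 nM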
miR-122 sensor: miR-122 inhibition in Huh7 cells | activation (reporter increase), % at 12.5 µM | Huh7 miR-122 Renilla luciferase sensor, 48 h; neutral wells = 0, positive control = 100 | AID 602342 | actives 0.3% (n = 340,000);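 active means mean replicate activation score at least 90 and every replicate individually at or above 90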;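 further: higher luciferase means less miR-122 activity so hits act as miR-122 inhibitors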
PGC1a acetyl inh: PGC1a acetylation modulation, inhibitor mode; U2OS PGC1a acetylation, AlphaScreen anti-acetyl-lysine; with virally co-expressed GCN5 acetyltransferase; inhibition, % at 15.6 µM; actives 0.17% (n = 350,000);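 active means every replicate shows inhibition of at least 40%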;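 further: 0% = neutral control wells and 100% = positive control wells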
FN deposition inh: fibronectin deposition inhibition | AH1F fibroblasts, Alexa488-fibronectin deposition fluorescence, overnight | inhibition, % at 12.6 µM | actives 0.086% (n = 350,000) | AID 743247;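 active means mean inhibition across replicates of 30% or more, regardless of how many single replicates reach that level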;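 further: positive control wells lacked labelled fibronectin entirely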
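Measured by – fluorescence 485/525 nm · System – AH1F fibroblast monolayer, labelled fibronectin deposition · Amount – 10000 cells per well · Buffer or medium – serum-reduced DMEM (2% serum) · Doses – single dose, pinned · Also added – fluorescent fibronectin at 24 nM final · Schedule – 1 h cell attachment, overnight exposure to compound and label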
Cneo AK release: Cryptococcus neoformans lysis via adenylate kinase release; lysis activity, % at 15 µM; AID 651654; actives 0.2% (n = 360,000); C. neoformans lysis, adenylate kinase release luminescence, 4 h; normalised: neutral wells 0, clomiphene wells 100;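 active means mean lysis activity across replicates of at least 80%, whatever share of replicates individually reach that level; inactive means mean lysis activity below 80%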
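Signal: Adenylate kinase release luminescence | Assay system: Log-phase Cryptococcus neoformans yeast cells | Input: Cells at 5 × 10^6 per mL | Buffer or medium: Fresh YPD growth medium | Compound: Single dose | Schedule: Static 4 h at 37 °C with compound, 1 h detection | Controls: Clomiphene | Read-out: Luminescence rise reflecting yeast cell lysis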
* hit, by the source's call; nt = no result; [ ] = another dose, or the depositor's remark.

no. | SMILES | UUG fidelity | HIV Env fusion | miR-122 sensor
1 | CN1C(=O)c2cc(NS(=O)(=O)c3ccccc3Cl)ccc2OC[C@@H]2O[C@H](CC(=O)O)CC[C@@H]21 | -9 | -10[16.7 µM] | -5[16.7 µM]
2 | N#Cc1ccc(-c2nc3c4ccccc4ccn3c2Cc2ccsc2)cc1 | nt | -8 | nt
3 | Clc1ccc(-c2nc3c4ccccc4ccn3c2Cc2ccsc2)cc1 | nt | 65* | nt
4 | O=S(=O)(c1cccc(-c2nnc(-c3ccc(Br)cc3)o2)c1)N1CCCCCC1 | -16 | 60* | 0
5 | NC(=O)CSc1nnc(-c2cccc(S(=O)(=O)N3CCCCC3)c2)o1 | nt | 3 | 2
6 | CCOC(=O)C1=C(C)N(C[C@@H]2CC[C@@H](Cc3ccc(-c4ccccc4)cc3)O2)C(=O)NC1c1ccc(Cl)cc1 (stereo not given in full) | -2 | 48 | -7
7 | CCOC(=O)C1=C(C)N(C[C@@H]2CC[C@@H](Cc3ccc(-c4ccccc4)cc3)O2)C(=O)NC1c1ccc(-c2ccccc2)cc1 (stereo not given in full) | -9 | 72* | -6
8 | CN(Cc1ccccc1)S(=O)(=O)c1ccc2c(c1)NC(=O)CC(=O)N2 | -19 | 5 | -3
9 | Cc1ccc(S(=O)(=O)N(C)c2cc(S(=O)(=O)N3CCOCC3)c(C)cc2C)cc1 | -3 | 16 | 1
10 | Cc1cc(C)c(S(=O)(=O)N2CCCCC2)cc1N(C)S(=O)(=O)c1ccc(Cl)cc1 | -11 | 95* | 0

no. | PGC1a acetyl inh | FN deposition inh | Cneo AK release
1 | 1 | -20 | -2
2 | nt | 4 | nt
3 | nt | -3 | nt
4 | 17 | 6 | -1
5 | nt | -2 | nt
6 | 2 | nt | 2
7 | 5 | nt | -1
8 | 11 | -6 | 4
9 | -5 | -5 | 1
10 | 7 | -12 | 0

(more compounds)
no. | SMILES | UUG fidelity | HIV Env fusion | miR-122 sensor
11 | C[C@@H]1CN([C@@H](C)CO)C(=O)Cc2cc(NC(=O)Cn3cnnn3)ccc2O[C@H]1CN(C)S(=O)(=O)c1ccccc1 | -12 | 2[16.7 µM] | 3[16.7 µM]
12 | C[C@H](CO)N1C[C@H](C)[C@H](CN(C)S(=O)(=O)c2ccccc2)Oc2ccc(NC(=O)Cn3cnnn3)cc2CC1=O | 3 | 65*[16.7 µM] | 6[16.7 µM]
13 | Cc1ccc(S(=O)(=O)N(C)C[C@H]2Oc3ccc(NC(=O)Cn4cnnn4)cc3CC(=O)N([C@H](C)CO)C[C@@H]2C)cc1 | 10 | 1[16.7 µM] | -14[16.7 µM]
14 | Cc1ccc(S(=O)(=O)N(C)C[C@@H]2Oc3ccc(NC(=O)Cn4cnnn4)cc3CC(=O)N([C@H](C)CO)C[C@@H]2C)cc1 | 1 | 89*[16.7 µM] | -10[16.7 µM]
15 | CO[C@H]1CN(C)C(=O)c2ccc(NC(=O)c3ccc(F)cc3)cc2OC[C@H](C)N(C(=O)CC2CC2)C[C@@H]1C | nt | nt | nt
16 | Cc1cc(C)cc(Oc2cc(NC(=O)c3cn(C)nc3C)cc([N+](=O)[O-])c2)c1 | -10 | 59* | -1
17 | CO[C@H]1CN(C)C(=O)c2ccc(NC(=O)c3ccc4c(c3)OCO4)cc2OC[C@@H](C)N(CCC(F)(F)F)C[C@H]1C | nt | -1[16.7 µM] | nt
18 | CN(C[C@H](Cc1ccccc1)N(C[C@H](CC1CCCCC1)N(CCc1ccccc1)N=O)N=O)N=O | 1 | 67* | nt
19 | CN(C[C@H](Cc1ccccc1)N(C[C@H](Cc1ccccc1)N(CC1(c2ccccc2)CC1)N=O)N=O)N=O | -20 | 98* | 1
20 | CN(C[C@@H](CC1CCCCC1)N(C[C@H](Cc1ccccc1)N(CCc1ccccc1)N=O)N=O)N=O | -16 | 84* | nt

no. | PGC1a acetyl inh | FN deposition inh | Cneo AK release
11 | 2 | nt | 1
12 | 9 | nt | 2
13 | 0 | nt | -9
14 | -5 | nt | 0
15 | nt | 4 | nt
16 | -2 | 3 | -3
17 | -17 | 7 | 45
18 | nt | 8 | 7
19 | -3 | -2 | 4
20 | nt | -11 | 4

Single records, from the list above. Screens in order: UUG fidelity	HIV Env fusion	miR-122 sensor	PGC1a acetyl inh	FN deposition inh	Cneo AK release
CO[C@H]1CN(C)C(=O)c2ccc(NC(=O)c3ccc(F)cc3)cc2OC[C@H](C)N(C(=O)CC2CC2)C[C@@H]1C is listed with nt	nt	nt	nt	4	nt
Clc1ccc(-c2nc3c4ccccc4ccn3c2Cc2ccsc2)cc1 is listed with nt	65*	nt	nt	-3	nt
CN1C(=O)c2cc(NS(=O)(=O)c3ccccc3Cl)ccc2OC[C@@H]2O[C@H](CC(=O)O)CC[C@@H]21 is listed with -9	-10[16.7 µM]	-5[16.7 µM]	1	-20	-2
NC(=O)CSc1nnc(-c2cccc(S(=O)(=O)N3CCCCC3)c2)o1 is listed with nt	3	2	nt	-2	nt

Continued:
no. | SMILES | UUG fidelity | HIV Env fusion | miR-122 sensor
21 | Cc1cc2ncn(C(=O)c3cc(-c4ccccc4)nc4ccccc34)c2cc1C | nt | -17 | nt
22 | O=C(Nc1ccccc1F)N1C[C@H]2[C@@H](c3ccccc31)[C@H](CO)N2C(=O)C1CCCCC1 | 8 | nt | 11[16.7 µM]
23 | O=C(Nc1ccccc1F)N1C[C@@H]2[C@H](c3ccccc31)[C@H](CO)N2C(=O)C1CCOCC1 | 12 | nt | 0[16.7 µM]
24 | O=C(Nc1ccccc1F)N1C[C@@H]2[C@H](c3ccccc31)[C@@H](CO)N2C(=O)C1CCCC1 | 8 | nt | 130*[16.7 µM]
25 | O=C(Nc1ccccc1F)N1C[C@@H]2[C@H](c3ccccc31)[C@H](CO)N2C(=O)C1CC1 | 1 | nt | -30[16.7 µM]
26 | Cc1ccc(-n2cc(CNCCN3CCOC3=O)c(-c3ccc(F)cc3)n2)cc1 | 1 | 1 | nt
27 | CC(C)OP(=O)(c1ccc(N(C)C)cc1)C(O)c1ccc(C(C)C)cc1 (stereo not given) | 12 | 74* | 6
28 | CC(C)COP(=O)(c1ccc(N(C)C)cc1)C(O)c1ccc(Br)cc1 (stereo not given) | nt | 56* | nt
29 | O=C(NCc1ccc2c(c1)OCO2)c1ccccc1 | nt | 12 | nt
30 | CCc1ccc(C(=O)NC(=S)NCc2cccnc2)cc1 | -25 | -12 | nt

no. | PGC1a acetyl inh | FN deposition inh | Cneo AK release
21 | nt | -3 | nt
22 | -10 | nt | 1
23 | 24 | 20 | -1
24 | -7 | 10 | -4
25 | 2 | 30* | -3
26 | -2 | -14 | -3
27 | nt | -8 | -1
28 | nt | -5 | nt
29 | 2 | -3 | nt
30 | nt | -6 | 87*

New compounds follow.
no. | SMILES | UUG fidelity | HIV Env fusion | miR-122 sensor
31 | CC(C)(C)c1ccc(C(=O)NC(=S)NCc2cccnc2)cc1 | -32 | 29 | 9
32 | O=C(NC(=S)NCc1ccc2c(c1)OCO2)c1ccccc1 | -8 | nt | 111*
33 | O=C(Cc1ccccn1)NCC[C@H]1CC[C@@H](NC(=O)CN2CCOCC2)[C@@H](CO)O1 | -5 | 5[16.7 µM] | nt
34 | CCN(CC)S(=O)(=O)c1ccc(NS(=O)(=O)c2ccc(C)c(C)c2)cc1 | -2 | -87 | 183*
35 | CCNS(=O)(=O)c1ccc(NS(=O)(=O)c2cc(C)ccc2C)cc1 | -12 | nt | 113*
36 | COc1ccc(NS(=O)(=O)c2cc(S(C)(=O)=O)ccc2C)cc1 | nt | -3 | nt
37 | CCN(CC)S(=O)(=O)c1cc(NS(=O)(=O)c2ccccc2)ccc1C | nt | 12 | nt
38 | COc1ccc(NS(=O)(=O)c2cc(C)ccc2C)cc1 | -5 | nt | 539*
39 | Cc1ccc(C)c(S(=O)(=O)Nc2ccc3sc(C)nc3c2)c1 | 10 | -12 | 428*
40 | CCCC(=O)Nc1ccc2c(c1)C(=O)N(C)C[C@H](OC)[C@@H](C)CN(C(=O)CN(C)C)[C@@H](C)CO2 | -3 | nt | 12[16.7 µM]

no. | PGC1a acetyl inh | FN deposition inh | Cneo AK release
31 | 4 | 0 | nt
32 | nt | 11 | 44
33 | -1 | -8 | 0
34 | -7 | 4 | 0
35 | -1 | nt | 1
36 | nt | 0 | nt
37 | nt | nt | nt
38 | -11 | nt | 1
39 | -1 | -5 | -1
40 | -5 | -7 | -3

Next section:
no. | SMILES | UUG fidelity | HIV Env fusion | miR-122 sensor
41 | CCN(C(=O)COC(=O)COc1ccc2c(C)cc(=O)oc2c1)C1CCS(=O)(=O)C1 (stereo not given) | nt | -6 | nt
42 | COc1cc(OC)c(C(=O)OCC(=O)N2CCN(S(=O)(=O)c3ccc(C)cc3C)CC2)cc1OC | 10 | -13 | -5
43 | CCN(CC)S(=O)(=O)c1ccc(Oc2ccccc2OC)cc1 | -6 | 14 | 6
44 | COc1ccc(C)cc1NS(=O)(=O)c1cc(C)ccc1C | nt | 5 | 87
45 | CCN(CC)c1ccc(N)cc1S(=O)(=O)Nc1ccc(OC)cc1 | -21 | 8 | 107*

no. | PGC1a acetyl inh | FN deposition inh | Cneo AK release
41 | 7 | -7 | nt
42 | -1 | 3 | 0
43 | -15 | -1 | 3
44 | -5 | 3 | nt
45 | -8 | -7 | -1
